US6986997B1, “Method for screening using an OAT1 transporter protein” (Fuji Bio Medix Co., Ltd., priority 1997, dated 2006)

Target: T1, rat OAT1 (Rattus norvegicus, UniProt O35956)
T1 sequence (O35956 1-551): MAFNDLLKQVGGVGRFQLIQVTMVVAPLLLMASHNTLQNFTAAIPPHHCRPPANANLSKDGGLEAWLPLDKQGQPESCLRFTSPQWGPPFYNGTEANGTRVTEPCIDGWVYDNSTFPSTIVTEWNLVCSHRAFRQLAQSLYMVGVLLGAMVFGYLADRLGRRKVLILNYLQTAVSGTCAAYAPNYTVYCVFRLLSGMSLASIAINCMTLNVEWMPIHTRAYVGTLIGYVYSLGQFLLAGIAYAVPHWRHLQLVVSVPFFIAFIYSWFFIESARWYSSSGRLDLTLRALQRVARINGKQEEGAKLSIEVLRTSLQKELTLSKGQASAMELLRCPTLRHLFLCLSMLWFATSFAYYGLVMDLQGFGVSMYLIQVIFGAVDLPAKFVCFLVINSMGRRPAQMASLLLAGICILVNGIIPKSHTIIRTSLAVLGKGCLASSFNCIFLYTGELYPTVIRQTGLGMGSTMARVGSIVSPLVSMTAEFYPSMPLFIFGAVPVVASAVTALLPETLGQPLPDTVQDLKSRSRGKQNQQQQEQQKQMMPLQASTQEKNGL
Assay: Uptake of radio labeled substances into oocytes expressing OAT1
Details: versus control oocytes not injected with cRNA

α-ketoglutarate [^14C-α-ketoglutarate]
transport of radio labeled substance into oocytes expressing OAT1: transported
